The chains behind the UniProt entries cited, without tags or fusion partners.
Neuropilin-1 (Homo sapiens), O14786, UniProt O14786, whole entry, looked up: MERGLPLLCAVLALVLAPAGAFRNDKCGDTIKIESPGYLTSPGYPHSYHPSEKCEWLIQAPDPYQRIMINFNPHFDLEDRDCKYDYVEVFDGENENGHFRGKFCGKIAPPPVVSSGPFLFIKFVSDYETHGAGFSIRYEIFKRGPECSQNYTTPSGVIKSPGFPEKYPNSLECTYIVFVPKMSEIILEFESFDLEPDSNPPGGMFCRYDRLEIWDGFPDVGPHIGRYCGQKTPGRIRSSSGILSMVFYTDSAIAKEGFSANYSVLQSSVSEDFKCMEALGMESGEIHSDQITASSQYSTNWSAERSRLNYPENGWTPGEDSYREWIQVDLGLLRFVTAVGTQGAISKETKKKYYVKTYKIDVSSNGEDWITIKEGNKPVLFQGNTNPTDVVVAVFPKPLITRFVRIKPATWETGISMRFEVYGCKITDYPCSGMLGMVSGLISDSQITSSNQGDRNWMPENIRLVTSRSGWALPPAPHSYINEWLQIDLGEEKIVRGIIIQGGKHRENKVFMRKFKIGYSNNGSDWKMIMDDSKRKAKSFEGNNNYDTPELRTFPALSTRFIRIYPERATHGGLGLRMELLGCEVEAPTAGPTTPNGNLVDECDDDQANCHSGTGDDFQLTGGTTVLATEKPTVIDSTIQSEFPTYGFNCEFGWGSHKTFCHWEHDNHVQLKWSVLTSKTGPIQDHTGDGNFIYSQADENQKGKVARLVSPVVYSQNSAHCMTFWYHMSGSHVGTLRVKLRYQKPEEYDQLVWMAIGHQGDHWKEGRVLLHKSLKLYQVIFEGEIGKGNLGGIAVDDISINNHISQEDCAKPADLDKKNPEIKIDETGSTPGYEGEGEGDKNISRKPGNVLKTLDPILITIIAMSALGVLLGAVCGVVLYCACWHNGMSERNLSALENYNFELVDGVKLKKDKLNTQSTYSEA
Melanocortin receptor 4 (Homo sapiens), P32245, UniProt P32245, whole entry, looked up: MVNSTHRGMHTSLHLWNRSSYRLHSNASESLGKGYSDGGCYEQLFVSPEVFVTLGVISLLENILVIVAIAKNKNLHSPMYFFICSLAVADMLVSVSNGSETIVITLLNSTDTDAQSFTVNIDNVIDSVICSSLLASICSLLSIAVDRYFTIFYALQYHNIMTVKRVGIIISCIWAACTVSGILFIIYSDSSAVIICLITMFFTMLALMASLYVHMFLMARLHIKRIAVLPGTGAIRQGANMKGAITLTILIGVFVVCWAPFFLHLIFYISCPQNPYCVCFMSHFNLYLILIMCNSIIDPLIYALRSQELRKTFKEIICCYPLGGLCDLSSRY

# Rows were chosen to be rich in hits. Some 2.3% of all compounds tested hit in one or more screens of this group.
# ARFGAP1 inhibitor: inhibitors of rat ARFGAP1 GAP activity, primary screen, biochemical, fluorescence polarization, GDP tracer | Arfgap1-stimulated ARF1 GTP hydrolysis, GDP FP detection | inhibition, % at 16.5 µM | hit rate 0.26% among 360,000;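 active = inhibition above a per-plate limit, mean inhibition of low control wells plus 3 SD, cut at about 25% in these data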;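 also: 0% = DMSO wells with enzyme and 100% = wells lacking Arfgap1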
#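 system = rat Arfgap1 catalytic domain, aa 1-136 | technique = FP, GDP Alexa 633 tracer displaced from anti-GDP antibody, 620/688 nm | compound = one concentration, 16.5 µM, DMSO 1.26% | medium = HEPES-based buffer, pH 7.5 | timing = compound-enzyme preincubation 20 min, reaction 120 min, detection 60 min, 25 °C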
# ASAP1 inh: inhibitors of human ASAP1 ArfGAP activity, primary screen, biochemical, fluorescence polarization; inhibition, % at 16.5 µM; ASAP1-stimulated ARF1 GTP hydrolysis, GDP FP detection; hit rate 0.19% among 360,000; AID 624377, 2012; in the data active = inhibition above about 25%;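 also: 0% = vehicle with enzyme and substrate and 100% = no enzyme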
# UUG fidelity: alters start codon recognition fidelity in yeast | S. cerevisiae UUG-firefly luciferase reporter, luminescence/redox ratio | activity score, % at 18.7 µM | 350,000 compounds, 0.13% hits | AID 602363;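 active = replicate mean at a twofold rise or more, about +100% in these data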;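 note: firefly luciferase made from a UUG start codon reports start codon fidelity; reporter light over untreated wells divided by growth signal over untreated wells; some hits fall short of that in this replicate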
# CendR NRP1 mod: modulators of CendR peptide binding to NRP-1, primary screen, biochemical, fluorescence polarization, uHTS | Neuropilin-1 (Homo sapiens), O14786 | FAM-RPARPAR peptide binding to NRP-1 | inhibition, % at 25 µM | hit rate 0.85% among 360,000 | AID 602438, 2012;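 active = inhibition or corrected inhibition above about 18%, plus a signal ratio from 0.5 to 1.5, limit read from the data, passing the limit was not always enough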
# MC4R antagonist: MC4R antagonists of cAMP signaling, primary screen, cell-based, TR-FRET, antagonist arm of biased-ligand search; MC4R-expressing cells, MTII-stimulated cAMP, LANCE TR-FRET; hit rate 0.48% among 360,000; AID 540295, 2011; inhibition, % at 6.5 µM;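 active = inhibition above its plate's cutoff, the mean of tested wells on that plate plus 3 SD, cut at about 29% in these data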;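 also: 0% = Melanotan II alone and 100% = Melanotan II plus saturating MCL0020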
#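 System – human MC4R-expressing U2OS cells · Also added – Melanotan II · Dosing – one concentration, 6.5 µM nominal · Timing – 30-min compound, 1-h challenge, 1-h detection, room temperature · Measured by – Eu-cAMP/anti-cAMP TR-FRET, emission 671 nm · Replicates – singlicate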
# MC4R ag barr: MC4R agonists recruiting beta-arrestin, primary screen, cell-based, luminescence, agonist arm of biased-ligand search | Melanocortin receptor 4 (Homo sapiens), P32245 | U2OS MC4R beta-arrestin complementation; percent of melanotan II response, DMSO zero | activation, % at 8.9 µM | AID 540308, 2011 | hit rate 0.98% among 360,000;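 active = activation above a per-plate cutoff, the mean activation of sample wells on that plate plus 3 SD, cut at about 8% in these data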
# cAMP nonselect: nonselective cAMP signaling inhibitors, parental cells, counter-screen for MC4R biased antagonist project, cell-based, TR-FRET, U2OS, forskolin, triplicate | inhibition, % at 6.5 µM | AID 602193, 2012 | hit rate 26% among 1,600 | shares compounds with MC4R antagonist | LANCE TR-FRET;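 active = mean inhibition over triplicates above the low-control well mean plus 3 SD, set per campaign, cut at about 13% in these data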;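 also: signal is single emission at 671 nm which falls as cellular cAMP rises; 0% = forskolin-stimulated wells and 100% = buffer without forskolin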
# MC4R antag conf: MC4R cAMP antagonists, retest, confirmation, cell-based, TR-FRET; shares compounds with MC4R antagonist; MC4R-expressing cells, MTII-stimulated cAMP; inhibition, % at 6.5 µM; hit rate 27% among 1,600; in the data active = inhibition above about 29%;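 also: 0% = agonist stimulated wells alone and 100% = agonist stimulated wells plus saturating reference antagonist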
# * hit, by the source's call; . = not tested or not shown; ! = not confirmed by another sample.
SMILES,ARFGAP1 inhibitor,ASAP1 inh,UUG fidelity,CendR NRP1 mod,MC4R antagonist,MC4R ag barr,cAMP nonselect,MC4R antag conf
O=S(=O)(c1ccccc1)N1CCN(c2nnc(-c3ccccc3)c3ccccc23)CC1,-1.2,-6.2,-16.5,12.9,29.6*,0.8,-0.1,12.0
CS(=O)(=O)N1CCN(c2nnc(-c3ccccc3)c3ccccc23)CC1,12.3,13.0,-5.3,1.7,16.6,0.3,.,.
Cc1cc(=O)[nH]c(N/N=C/c2c(F)c(F)c(F)c(F)c2F)n1,-9.4,1.4,-18.7,2.1,28.9*,-0.4,13.5*,20.2
CCS(=O)(=O)NCCc1cc2c(OC)ccc(OC)c2[nH]c1=O,15.2,3.2,-19.7,6.6,-3.3,-1.7,.,.
COc1ccc(OC)c2[nH]c(=O)c(CCNS(=O)(=O)c3ccc(F)cc3)cc12,-0.1,8.7,-5.4,3.7,32.7*,2.8,0.7,-1.9
COc1ccc(OC)c2[nH]c(=O)c(CCNC(=O)C(=O)c3c(C)[nH]c4ccccc34)cc12,14.9,16.7,-2.9,16.0,31.4*,1.2,3.2,3.7
C[C@@H]1CN([C@@H](C)CO)C(=O)c2cc(-c3ccccc3F)cnc2O[C@@H]1CN(C)C(=O)C1CC1,.,.,10.0,.,.,.,.,.
c1ccc(COc2cccc(-c3cc4nc(NCCN5CCOCC5)ccn4n3)c2)cc1,11.9,6.1,-16.6,-12.4,2.8,-0.4,.,.
c1ccc(COc2ccc(-c3cc4nc(NCCN5CCOCC5)ccn4n3)cc2)cc1,8.5,9.4,-20.0,-37.3,33.4*,2.0,3.2,20.0
COc1ccc(-c2cnc3nc[nH]c(=O)c3n2)cc1,-5.6,-4.6,7.2,-10.1,29.0*,1.5,-1.7,-1.7
CCCC#Cc1cnc2c(c1)C(=O)N([C@@H](C)CO)C[C@@H](C)[C@H](CN(C)Cc1ccncc1)O2,.,.,-2.1,.,.,.,.,.
C[C@@H]1CN([C@H](C)CO)C(=O)CCCn2nncc2CO[C@H]1CN(C)Cc1ccc(C(F)(F)F)cc1,4.5,10.5,-3.6,6.3,31.3*,1.0,-1.5,-9.7
CCOc1cc(NC(=S)NCC2CCCO2)c(OCC)cc1NC(=O)c1ccccc1C (centres undefined),-7.4,-0.3,-16.8,4.9,29.8*,-0.5,-8.3,-16.4
CCOc1ccccc1NC(=S)NCC1CCCO1 (centres undefined),-2.6,-11.2,.,-3.2,3.9,-2.6,.,.
Cn1cnc(CCNC(=O)C[C@@H]2CC[C@H]3[C@@H](COC[C@H](O)CN3C(=O)Nc3ccc(F)cc3)O2)c1,.,.,-8.1,.,.,.,.,.
O=C(c1ccc(S(=O)(=O)N2CCCCCC2)cc1)N(c1ccccn1)C1CCCCC1,15.9,2.6,26.7,2.1,15.2,-1.8,.,.
O=C(c1ccc(S(=O)(=O)N2CCCCC2)cc1)N(c1ccccn1)C1CCCCC1,12.4,19.2,.,4.9,31.9*,-0.4,-6.4,-1.9
COC(=O)C1=C(C(=O)OC)SC2(S1)C(C(=O)OC)=C(C(=O)OC)SC1=C2c2cc(C)cc(C)c2NC1(C)C,-5.4,-8.8,-3.9,-2.5,53.5*,-1.6,15.0*,39.9*
CO[C@@H]1CN(C)C(=O)c2ccc(NS(C)(=O)=O)cc2OC[C@@H](C)N(C(=O)C2CC2)C[C@H]1C,.,.,-2.7,.,.,.,.,.
COc1ccc(-n2c(=S)[nH]c3sc(-c4ccccc4)cc3c2=O)c(OC)c1,0.3,-12.6,-20.9,13.4,32.5*,-3.5,15.3*,15.2
CN(C)CC(=O)Nc1ccc2c(c1)[C@H]1C[C@@H](CC(=O)NCC3CC3)O[C@@H](CO)[C@H]1O2,.,.,2.9,.,.,.,.,.
Cc1cccc(-n2nc3c(c2NC(=O)c2ccc(S(=O)(=O)N4CCOCC4)cc2)CSC3)c1C,-1.3,8.5,-3.1,-3.4,4.0,-2.2,.,.
Cc1ccc(-n2nc3c(c2NC(=O)c2ccc(S(=O)(=O)N4CCOCC4)cc2)CSC3)c(C)c1,.,.,-18.5,-24.7,32.3*,1.1,-0.7,-1.9
Cc1ccc(S(=O)(=O)N[C@H]2CC[C@H](CCNC(=O)Nc3ccc(Cl)cc3)O[C@@H]2CO)cc1,.,.,10.0,.,.,.,.,.
Cc1nc2ccc(Br)cc2c(-c2ccccc2)c1C(=O)O,-9.8,12.4,.,1.3,35.5*,-1.6,48.5*,96.2*

# Next section, overlapping the part above by five compounds.
SMILES,ARFGAP1 inhibitor,ASAP1 inh,UUG fidelity,CendR NRP1 mod,MC4R antagonist,MC4R ag barr,cAMP nonselect,MC4R antag conf
CN(C)CC(=O)Nc1ccc2c(c1)[C@H]1C[C@@H](CC(=O)NCC3CC3)O[C@@H](CO)[C@H]1O2,.,.,2.9,.,.,.,.,.
Cc1cccc(-n2nc3c(c2NC(=O)c2ccc(S(=O)(=O)N4CCOCC4)cc2)CSC3)c1C,-1.3,8.5,-3.1,-3.4,4.0,-2.2,.,.
Cc1ccc(-n2nc3c(c2NC(=O)c2ccc(S(=O)(=O)N4CCOCC4)cc2)CSC3)c(C)c1,.,.,-18.5,-24.7,32.3*,1.1,-0.7,-1.9
Cc1ccc(S(=O)(=O)N[C@H]2CC[C@H](CCNC(=O)Nc3ccc(Cl)cc3)O[C@@H]2CO)cc1,.,.,10.0,.,.,.,.,.
Cc1nc2ccc(Br)cc2c(-c2ccccc2)c1C(=O)O,-9.8,12.4,.,1.3,35.5*,-1.6,48.5*,96.2*
Cc1ccc(-c2cc(C(=O)O)c3cc(Br)ccc3n2)s1,-2.4,-4.3,-15.3,-8.9,36.3*,-0.3,16.3*,30.9*!
C[C@H]1CN([C@@H](C)CO)C(=O)c2cc(NC(=O)Cn3cnnn3)ccc2O[C@@H]1CN(C)C(=O)NC1CCCCC1,.,.,-0.2,.,.,.,.,.
C[C@@H]1CCCCO[C@H](CN(C)C(=O)Nc2ccc(F)cc2)[C@H](C)CN([C@@H](C)CO)C(=O)c2cc(NS(=O)(=O)c3ccc(Cl)cc3)ccc2O1,.,.,8.6,.,.,.,.,.
CCn1cc(CCC(=O)NCc2cccc(OC)c2OC)c2ccccc21,-6.9,4.0,-16.4,-3.8,30.9*,0.7,-0.5,3.7
CO[C@@H]1CN(C)C(=O)c2ccc(NC(=O)c3ccccc3)cc2OC[C@@H](C)N(CC2CC2)C[C@H]1C,.,.,0.4,.,.,.,.,.
Clc1ccc(OCCCN2CCCCC2)c(Br)c1,6.5,7.9,1.3,16.2,-4.8,-0.6,.,.
Clc1ccc(OCCCCCN2CCCC2)c(Br)c1,4.2,0.7,-19.6,3.8,30.1*,-2.5,1.1,-10.9
CCn1cc(C(=O)NC(C)C23CC4CC(CC(C4)C2)C3)cn1 (centres undefined),-0.6,-2.3,-10.8,-1.6,23.8,0.4,.,.
CC(NC(=O)Cn1ncc(Cl)c(Cl)c1=O)C12CC3CC(CC(C3)C1)C2 (centres undefined),.,.,.,-12.1,81.1*,-2.4,32.4*,46.5*
O=C(Cn1ncc(Cl)c(Cl)c1=O)NC(=O)NC1CCCCC1,5.4,-9.0,.,6.3,38.2*,-0.7,36.5*,67.4*
C/C=C/c1cnc2c(c1)C(=O)N([C@@H](C)CO)C[C@@H](C)[C@@H](CN(C)C(=O)CN1CCOCC1)O2,.,.,-0.6,.,.,.,.,.
